Experimental data taken from patent US6638972B2, “Chroman and benzofuran derivatives as 5-hydroxytryptamine-6 ligands” (Wyeth, priority 2001, dated 2003).
pKi: −log10 of the molar value.

Protein sequences, listed by entry. Tags and fused reporters are not part of them.
UniProt P50406, whole entry: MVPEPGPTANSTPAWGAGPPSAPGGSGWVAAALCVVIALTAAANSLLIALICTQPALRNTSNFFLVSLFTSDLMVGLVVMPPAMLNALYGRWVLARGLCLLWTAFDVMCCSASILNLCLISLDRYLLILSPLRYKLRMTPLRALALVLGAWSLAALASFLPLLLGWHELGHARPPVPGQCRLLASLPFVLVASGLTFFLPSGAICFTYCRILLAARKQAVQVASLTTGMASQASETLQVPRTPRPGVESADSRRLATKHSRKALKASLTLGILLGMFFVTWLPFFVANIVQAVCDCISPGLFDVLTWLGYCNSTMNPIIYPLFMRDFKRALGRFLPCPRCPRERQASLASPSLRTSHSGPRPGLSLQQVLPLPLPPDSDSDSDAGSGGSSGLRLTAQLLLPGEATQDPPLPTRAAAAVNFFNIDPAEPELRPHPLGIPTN

Target: human cloned 5-HT6 receptors (Homo sapiens, UniProt P50406)
Test: 5-HT6 binding affinity ([3H]-LSD displacement, membranes of Hela cells expressing human cloned 5-HT6 receptors)
Conditions: read-out: 5-HT6 Binding Ki; [3H]-LSD 3.0 nM, Hela cell membranes, 120 min at room temperature; tested form: fumarate

With `O=S(=O)(CCNCC1CCc2ccc(OCc3ccccc3)cc2O1)Cc1ccccc1` (stereo not shown) the pKi was 6.90.
